Target: EGFR-viii (Homo sapiens, UniProt P00533, DELINS30-297G)
Assay: PhosphoY1173-EGFR-viii in-cell ELISA in U87MG tumor cells engineered to express EGFR-viii
Conditions: U87MG tumor cells expressing EGFR-viii, in words

## C=CC(=O)Nc1cccc(Oc2nc(Nc3ccc(N4CCN(C)CC4)cc3OC)ncc2Cl)c1 [WZ4002]
  activity against EGFR-viii: weak activity
